# Source: PubChem BioAssay AID662 (National Center for Advancing Translational Sciences (NCATS), 2007)
# The list shows a part of the results, in another mix than the full data. Some results for these compounds are left out of this collection, so the calls shown say nothing about other tests. Results filed as inconclusive are left out. Calls of active or inactive are those of the source. Calls come from the whole dose curve; as a rule, active = well fitted activation curve with a large enough effect in the signal ratio, with a control signal flat (not every such curve was filed as active); inconclusive = small, poorly fitted or top-dose-only effect, or effect the other way, or a change in a side signal; inactive = flat fitted curve, though single readings scatter; the % refers to the signal ratio.
# Assay: Cell signaling CRE-BLA (Fsk stim); note: % of control where 0% means no effect
# Conditions: CHO CRE-bla reporter (cAMP response element driving beta-lactamase), forskolin EC10, beta-lactamase ratio; at 7.6 µM unless noted
# Description: NIH Molecular Libraries Screening Centers Network [MLSCN]
# NIH Chemical Genomics Center [NCGC]
# Assay Provider: Marshall W. Nirenberg, U.S. National heart lung & blood institute
# Memories persist for different lengths of time, from seconds or minutes to a lifetime. There are two kinds of memory: short-term memory (STM) and long-term memory (LTM). STM lasts for minutes to hours, which maybe mediated by modifications of molecules involved in synaptic functions. LTM lasts for days or longer, and may be due to the formation of new synapses or restructuring of existing synapses. LTM, but not STM, requires gene transcription and synthesis of proteins. CREB (cyclic-AMP Responsive Element Binding Protein) is one of the candidates plays an important role for enhancement of some types of LTM. CREB, a family of transcription factors, regulates the transcription of genes containing cAMP Responsive Elements (CRE). CRE is a nucleotide sequence often found in the promoter regions of genes that are binding sites for CREB.
# Using a beta-lactamase reporter-gene under control of cAMP responsive element, a cell-based assay [CellSensor(TM) CRE-bla CHO developed by Invitrogen Corp.] was used to measure forskolin-induced signaling. Library compounds were measured for their ability to modulate positively or negatively the action of EC10 NKH 477, a water soluble forskolin, on reporter gene activity. Compounds were screened in a titration series in 1536-well format. Positive and negative modulators were identified based on the AC50 values derived from the screening data.
# NCGC Assay Protocol Summary
# 2000 cells/5uL in Opti-MEM medium containing 0.5% dialyzed FBS, 0.1 mM NEAA, 1 mM sodium pyruvate and 10 mM HEPES was dispensed into 1536-well plates and cells were cultured at 37 degrees Celsius overnight. […] And then the plates were incubated at 37 degrees Celsius for 3 hours. 1 uL of CCF4-dye mixture was added to each well. After incubated at room temperature for 2 hours the plates were measured on an EnVision plate reader at Excitation 405nm, Emission1=460nm and Emission 2=530nm. The %Activity was determined from the ratio of 460nm/530nm.
# Keywords: NIH Roadmap, MLSCN, MLSMR, qHTS, NCGC, CRE, beta-lactamase reporter-gene assay.
row,Compound,"activity change, negative = inhibition"
1,C=C(C)C#C[C@@](O)(C(=O)OC1CCN(C)CC1)c1ccccc1,inactive: -2.81%
2,CN1CCC[C@H](OC(=O)[C@](O)(c2ccccc2)C2CCCC2)C1,inactive: -7.7%
3,O=C(OC1CN2CCC1CC2)C(CO)(c1ccccc1)c1ccccc1 (stereo not given),inactive: 0.884% [at 38.2 µM]
4,CN1CC[C@H](OC(=O)[C@](O)(c2ccccc2)C2CCCC2)C1,inactive: -3.66%
5,CN(C)c1cccc(C(=O)NCC2(N(C)C)CCCCC2)c1,inactive: -2.09% [at 38.2 µM]
